For nine molecules, Ki results are on record in US8067447B2, “Modulators of glucocorticoid receptor, AP-1, and/or NF-κB activity and use thereof” (Bristol-Myers Squibb Company, priority 2006, dated 2011).

For the first assay, the target named is T1, human glucocorticoid receptor (Homo sapiens, UniProt P04150).
T1 construct: purified human recombinant full-length glucocorticoid receptor (2 nM); purchased Invitrogen Part #2893
T1 sequence (P04150 1-777): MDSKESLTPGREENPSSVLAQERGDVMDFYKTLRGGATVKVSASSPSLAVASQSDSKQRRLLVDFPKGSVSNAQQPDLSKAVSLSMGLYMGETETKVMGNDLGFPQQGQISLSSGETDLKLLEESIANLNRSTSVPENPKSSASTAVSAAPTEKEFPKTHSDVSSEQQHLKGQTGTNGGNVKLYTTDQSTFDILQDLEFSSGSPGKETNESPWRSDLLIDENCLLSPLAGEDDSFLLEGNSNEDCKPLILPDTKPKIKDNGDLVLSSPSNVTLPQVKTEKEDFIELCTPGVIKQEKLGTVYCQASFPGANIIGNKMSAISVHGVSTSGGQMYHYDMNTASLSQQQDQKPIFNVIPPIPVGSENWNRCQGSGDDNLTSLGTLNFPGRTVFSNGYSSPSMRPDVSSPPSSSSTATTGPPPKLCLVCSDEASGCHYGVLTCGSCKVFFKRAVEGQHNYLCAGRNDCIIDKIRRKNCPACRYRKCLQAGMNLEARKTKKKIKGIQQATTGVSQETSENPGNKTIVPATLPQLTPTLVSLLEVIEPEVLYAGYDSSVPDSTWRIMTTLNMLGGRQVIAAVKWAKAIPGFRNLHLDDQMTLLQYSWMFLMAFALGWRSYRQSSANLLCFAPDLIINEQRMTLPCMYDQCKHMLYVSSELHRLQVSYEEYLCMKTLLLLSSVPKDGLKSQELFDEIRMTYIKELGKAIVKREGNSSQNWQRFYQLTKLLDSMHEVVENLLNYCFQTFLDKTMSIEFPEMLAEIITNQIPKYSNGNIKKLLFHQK
Description: Glucocorticoid Receptor Binding Assay (I), fluorescence polarization competitor kit (Fluormone GS Red). The conditions noted are these: purified human recombinant full-length GR 2 nM, 1 nM Fluormone GS Red, FP. Here is the method: Briefly, purified human recombinant full-length glucocorticoid receptor (2 nM) was mixed with fluorescently labeled glucocorticoid (1 nM Fluormone GS Red) in the presence or absence of test compound. After two hour incubation at room temperature in the dark, the fluorescence polarization (FP) of the samples was measured. […] Test compounds were analyzed in the concentration range from 8.5E-05 μM to 5 μM.
Background: In fluorescence polarisation assays a small probe gives low polarisation when free and higher when bound to something large.
`CC(C)n1ncc2cc(C(c3ccccc3)C(C)(C)C(=O)Nc3nncs3)ccc21` (stereo not drawn) [Example 63, 3-(1-isopropyl-1H-indazol-5-yl)-2,2-dimethyl-3-phenyl-N-(1,3,4-thiadiazol-2-yl)propanamide]: the Ki (usually a dissociation constant, usually derived from enzyme kinetics or from competition with a known ligand) came to 10 nM. Consider `CC(C)(C(=O)Nc1nncs1)C(c1ccccc1)c1ccc2c(cnn2C2CCCCCC2)c1` (stereo not drawn) [Example 78, 3-(1-cycloheptyl-1H-indazol-5-yl)-2,2-dimethyl-3-phenyl-N-(1,3,4-thiadiazol-2-yl)propanamide], for which the Ki turned out to be 12 nM.

Turning to `CC(C)CC(c1ccc2c(cnn2-c2ccc(F)cc2)c1)C(C)(C)C(=O)Nc1nncs1` (stereo not drawn) [Example 34, 3-(1-(4-Fluorophenyl)-1H-indazol-5-yl)-2,2,5-trimethyl-N-(1,3,4-thiadiazol-2-yl)hexanamide], the inhibition constant Ki came out at 7.5 nM. On the same count and under the same terms, under `CC(C)(C(=O)Nc1nccs1)C(c1ccncc1)c1ccc2c(cnn2-c2ccc(F)cc2)c1` (stereo not drawn) [Example 36, 3-(1-(4-Fluorophenyl)-1H-indazol-5-yl)-2,2-dimethyl-3-(pyridin-4-yl)-N-(thiazol-2-yl)propanamide] stands 12 nM; under `Cc1csc(NC(=O)C(C)(C)C(c2ccccc2)c2ccc3c(cnn3-c3ccc(F)cc3)c2)n1` (stereo not drawn) [Example 12, 3-(1-(4-fluorophenyl)-1H-indazol-5-yl)-2,2-dimethyl-N-(4-methylthiazol-2-yl)-3-phenylpropan-amide], 14 nM.

The next assay has as its target T2, human full-length glucocorticoid receptor (Homo sapiens, UniProt P04150).
T2 construct: a cell lysate containing recombinantly expressed human full-length glucocorticoid receptor; purchased PanVera Co., Madison, Wis; P2816
T2 sequence (P04150 1-777): T1 sequence (P04150 1-777)
Put plainly: Glucocorticoid Receptor Binding Assay (II), fluorescence polarization competitor kit (Fluormone GS1). The conditions noted are these: cell lysate with recombinant human full-length GR, 1 nM Fluormone GS1, FP. How it is done:
In order to measure the binding of compounds on the glucocorticoid receptor a commercially available kit was used (Glucocorticoid receptor competitor assay kit, PanVera Co., Madison, Wis., P2816). Briefly, a cell lysate containing recombinantly expressed human full-length glucocorticoid receptor was mixed with a fluorescently labeled glucocorticoid (1 nM Fluormone GS1) in the presence or absence of test compound. After one hour at room temperature, the fluorescence polarization (FP) of the samples were measured. […] Test molecules were analyzed in the concentration range from 2.4 nM to 40 microMolar.
On to `CC(C(=O)Nc1nncs1)C(c1ccccc1)c1ccc2c(cnn2-c2ccc(F)cc2)c1` (single isomer, unassigned) [Example 141-isomerB, 3-(1-(4-Fluorophenyl)-1H-indazol-5-yl)-2-methyl-3-phenyl-N-(1,3,4-thiadiazol-2-yl)propanamide], for which the Ki was 0.59 nM.

`CC(C(=O)Nc1nncs1)C(c1ccccc1)c1ccc2c(cnn2-c2ccc(F)cc2)c1` (single isomer, unassigned) [Example 141-isomerA, 3-(1-(4-Fluorophenyl)-1H-indazol-5-yl)-2-methyl-3-phenyl-N-(1,3,4-thiadiazol-2-yl)propanamide]: the inhibitory constant (Ki) came out at 44 nM. The same measure, in the same setting: under `CC(C(=O)Nc1nncs1)C(c1ccccc1)c1ccc2c(cnn2-c2ccc(F)cc2)c1` (single isomer, unassigned) [Example 141-isomerD, 3-(1-(4-Fluorophenyl)-1H-indazol-5-yl)-2-methyl-3-phenyl-N-(1,3,4-thiadiazol-2-yl)propanamide] stands 2.4 nM. In the case of `CC(C(=O)Nc1nncs1)C(c1ccccc1)c1ccc2c(cnn2-c2ccc(F)cc2)c1` (single isomer, unassigned) [Example 141-isomerC, 3-(1-(4-Fluorophenyl)-1H-indazol-5-yl)-2-methyl-3-phenyl-N-(1,3,4-thiadiazol-2-yl)propanamide], the Ki was 0.48 nM.
